Patent US10064797B2, “Topical formulations for UV protection” (TOPGENIX, INC., priority 2014, dated 2018)

Test: UV absorption spectra of the compounds, avobenzone and their combinations
Type: physicochemical
Settings: compound alone
Procedure: In both cases, the absorptivity of these two compounds were studied. In addition, photostability of these two compounds were also assessed by taking a second UV absorption spectra after exposing the compounds to UV. Photostability of sun screening compounds are of critical importance as a compound would be completely ineffective if they lose their UV absorptive qualities shortly after being exposed to solar radiation.
Avobenzone is an example for a known chemical UV absorber that can be combined.

2-Methoxy-3-{(4-methoxyphenyl)imino} cyclohex-1-ene amino acetic acid
wavelength of strongest (maximum) UV absorption: 337 nm
